Biological target: EGFR WT (Homo sapiens, UniProt P00533)
Assay: TR-FRET inhibition of kinase activity of wild type EGFR
Assay type: biochemical
Details: read-out: EGFR WT IC50

Chains of the proteins cited; added tags and fusions are not shown. Residues count along the entry.
UniProt P00533, 25-1210 limits assumed: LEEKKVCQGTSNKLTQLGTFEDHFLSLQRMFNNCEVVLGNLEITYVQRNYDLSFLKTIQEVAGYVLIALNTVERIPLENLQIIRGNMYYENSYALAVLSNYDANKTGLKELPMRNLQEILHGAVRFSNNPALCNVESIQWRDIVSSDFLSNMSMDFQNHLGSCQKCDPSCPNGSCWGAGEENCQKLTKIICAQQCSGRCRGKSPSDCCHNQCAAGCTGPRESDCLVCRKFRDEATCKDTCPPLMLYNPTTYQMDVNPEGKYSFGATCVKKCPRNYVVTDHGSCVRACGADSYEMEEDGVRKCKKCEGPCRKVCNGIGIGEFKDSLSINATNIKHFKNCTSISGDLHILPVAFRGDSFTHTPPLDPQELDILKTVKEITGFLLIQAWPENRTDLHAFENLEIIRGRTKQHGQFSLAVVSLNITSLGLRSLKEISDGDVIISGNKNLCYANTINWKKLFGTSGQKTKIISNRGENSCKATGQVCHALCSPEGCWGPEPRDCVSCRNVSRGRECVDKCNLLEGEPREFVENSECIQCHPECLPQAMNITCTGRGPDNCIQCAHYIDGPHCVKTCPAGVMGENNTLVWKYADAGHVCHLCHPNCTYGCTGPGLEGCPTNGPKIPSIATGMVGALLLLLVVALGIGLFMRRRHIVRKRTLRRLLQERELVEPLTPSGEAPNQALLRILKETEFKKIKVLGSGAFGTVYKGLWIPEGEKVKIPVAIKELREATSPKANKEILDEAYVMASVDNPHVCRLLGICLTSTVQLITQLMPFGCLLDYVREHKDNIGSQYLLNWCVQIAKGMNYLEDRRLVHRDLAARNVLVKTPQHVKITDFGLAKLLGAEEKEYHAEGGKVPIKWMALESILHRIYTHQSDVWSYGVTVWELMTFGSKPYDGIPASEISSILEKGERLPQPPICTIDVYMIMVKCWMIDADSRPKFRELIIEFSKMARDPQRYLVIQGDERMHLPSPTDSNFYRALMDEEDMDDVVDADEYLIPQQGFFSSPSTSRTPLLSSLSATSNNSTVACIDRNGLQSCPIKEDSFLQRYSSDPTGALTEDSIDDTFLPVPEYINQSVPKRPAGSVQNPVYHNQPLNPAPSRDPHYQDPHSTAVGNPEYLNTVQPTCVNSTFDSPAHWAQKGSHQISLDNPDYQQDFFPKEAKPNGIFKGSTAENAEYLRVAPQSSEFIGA

SMILES: C=CC(=O)Nc1cc(Nc2ncc(C#N)c(-c3cn(C4CC4)c4ccccc34)n2)c(OC)nc1N(C)CCN(C)C
- IC50: 1320 nM

From patent US20220340547A1, “INDOLE DERIVATIVE-CONTAINING INHIBITOR, PREPARATION METHOD THEREFOR AND APPLICATION THEREOF” (Shanghi Hansoh Biosoh Biomedical Co., Ltd., priority 2019, published 2022)
